# Most compounds without a hit are left out; they make up all but 3.7% or so of the library.
# miR-21 reporter – raises the signal of a miR-21 reporter; HeLa miR-21 FLuc reporter, luciferase, 48 h; Potency, µM (top dose mostly 38.3 µM), for inactives: at the highest dose reporter change, positive = more light; AID 2288; 340,000 tested, under 10 active; active = well fitted rising curve with a large enough effect; inconclusive = small, poorly fitted or top-dose-only effect; inactive = no such curve, though single readings can be large or run the other way;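 note: % of control where 0% means no effect; miR-21 action dims this reporter so a rising signal means less miR-21 action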
#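 HeLa miR-21-FLuc reporter line, endogenous miR-21; 2000 cells/well in DMEM/10% FBS; compound titration up to ~40uM final, 48 h, 37 degree Celsius; luciferase detection reagent, 15 min lysis, CCD luminescence.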
# Nrf2 block – inhibitors of Nrf2 signaling. A549 ARE-Fluc reporter, luciferase luminescence, 18-24 h. AID 504444. hit rate 2.1% among 360,000. Potency, µM (titrated, usually from 46 µM), inactives show at the highest dose activity change, negative = inhibition, hits mostly inhibitors; also: potency is read from the fitted curve at half-maximal effect; % is scaled to controls: 0 for no effect and ±100 for the full control effect; nearly all actives have a fitted effect of over 60% in size
#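 Two sequential reads on A549 ARE_Fluc cells exposed to compound for 18-24 h: a CellTiter-Fluor fluorescence read for viability, then a luciferase luminescence read for Nrf2/ARE activity.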
# TCR act – activators of T cell receptors; primary human leukocytes, anti-CD3, IL-2 HTRF, 48 h; Potency, µM (series often up to 9.22 µM), for the others: top-dose activation of IL-2 secretion, hits mostly activators; 330,000 tested, under 10 active; AID 504894; also: % of control where 0% means no effect
#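 Readout: HTRF IL-2, Eu-cryptate/d2 antibody pair, 320nm excitation, 665nm emission. Stimulus: a-CD3 beads, no co-stimulation. Cells: primary human leukocytes. Exposure: 48 hr with compound.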
# A549 viability – kills or reduces viability of A549 cells in Nrf2 counter-screen | A549 ARE-Fluc cells, CellTiter-Fluor viability, 18-24 h | hit rate 0.16% among 390,000 | Potency, µM (series often up to 46 µM), for inactives: top-dose activity change, negative = cytotoxicity, usual class: inhibitors; also: potency is read from the fitted curve at half-maximal effect; % is scaled to controls: 0 for no effect and ±100 for the full control effect
#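 A549 ARE_Fluc cells in 5% FBS OPTI-MEM were exposed to compounds in concentration-response for 18-24 h at 37 deg C. Viability was read by CellTiter-Fluor fluorescence (Ex 405/Em 525) after 30 min, before the luciferase read.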
# Nrf2 activator – activators of Nrf2 (ARE) signaling; AREc32 ARE-luciferase reporter (MCF7-derived line), luminescence, 24 h; Potency, µM (titrated, usually from 46.1 µM), without a hit: top-dose activation, usual class: activators; hit rate 0.31% among 410,000; AID 624171; also: potency is read from the fitted curve at half-maximal effect; % of control where 0% means no effect; nearly all actives have a fitted effect of over 65% in size
#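 ARE-driven firefly luciferase activity in AREc32 cells measured after a 24 hr compound exposure at 37 deg C, using Steady-Glo reagent and a 30 min room-temperature hold.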
# ClpP mod – qHTS Assay for Activators of ClpP | purified B. subtilis ClpP, FRET peptide cleavage, 20 min | AID 651965, 2013 | hit rate 1.9% among 340,000 | Potency, µM (series often up to 57.5 µM), inactives show at the highest dose activity change, negative = active | ATP-dependent Clp protease proteolytic subunit (Bacillus subtilis (strain 168)), P80244; active = well fitted falling curve with a large enough effect; inconclusive = small, poorly fitted or top-dose-only effect; inactive = no such curve, though single readings can be large or run the other way; also: potency is read from the fitted curve at half-maximal effect; the source files actives as falling curves though it sought activators and does not explain the sign; nearly all actives have a fitted effect of over 65% in size
#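 FRET quenching reversal measured ClpP activation: 10 microg/mL B. subtilis ClpP at pH 8 with the FRET-FV decapeptide, read at 430 nm after 320 nm excitation. The 20-min minus 0-min signal was scaled between DMSO/no-enzyme wells and ADEP (5.8 microM final).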
# * = called active by the depositor; ? = inconclusive; . = not tested or not shown; [ ] = remark or other dose. Unless noted, calls follow the shape of the dose curve; as a rule, active = well fitted curve in the direction sought with a large enough effect; inconclusive = small, poorly fitted or top-dose-only effect, or another doubt; inactive = no such curve, though single readings can be large; an effect the other way counts as inactive or inconclusive.
# Each structure is followed by: miR-21 reporter, Nrf2 block, TCR act, A549 viability, Nrf2 activator, ClpP mod
O=C1NC(c2ccccc2)=C(c2nc3ccccc3s2)C(c2ccc(F)cc2)N1 (stereo unspecified)
→ 28.2%, 16.4µM*, -2.0%, ?, 3.3%, -7.3%
COc1ccc(C2NC(=O)NC(c3ccccc3)=C2c2nc3ccccc3s2)cc1 (stereo unspecified)
→ 8.3%, ?, -9.3%, ?, 0.4%, -8.2%
O=C(c1ccc(CSc2nc3ccncc3[nH]2)cc1)N1CCCCCC1
→ 8.6%, -1.8%, 5.5%, -1.0%, -0.4%, 1.1%
O=C(c1ccc(CSc2nc3ccncc3[nH]2)cc1)N1CCN(c2cccc(Cl)c2)CC1
→ 22.6%, 20.6µM*, -11.8%, -25.9%, -3.4%, -0.1%
Cc1ccc(-n2[nH]c3c4c(ccc3c2=O)C(=O)c2ccccc2C4=O)cc1
→ -0.2%, 3.1%, 2.5%[46.1 µM], 3.7%, 1.0%, 0.8%
Cc1ccc(C)c(-n2[nH]c3c4c(ccc3c2=O)C(=O)c2ccccc2C4=O)c1
→ -6.6%, 23.1µM*, 1.8%[46.1 µM], ?, 0.4%, -0.5%
CCn1c(=O)c(C(=O)Nc2ccccc2)c(O)c2ccccc21
→ -12.6%, 22.2%, -0.7%, 13.0%, 12.8%, -0.8%
CCn1c(=O)c(C(=O)Nc2nc3ccccc3[nH]2)c(O)c2ccccc21
→ -0.2%, 16.4µM*, -5.7%, 20.6µM*, 7.9%, -9.4%
Cc1ccc(CN(Cc2cc3cccc(C)c3[nH]c2=O)C(=S)NCCCN(C)C)cc1
→ -4.9%, ?, -0.6%, ?, 0.0%, 22.4µM*
COC(=O)C(=Cc1ccc(-c2ccsc2C(=O)OC)o1)C(=O)OC
→ -20.3%, 1.4%, -0.3%, ?, 12.6µM*, .
CCOC(=O)C(=Cc1ccc(-c2ccsc2C(=O)OC)o1)C(=O)OCC
→ 1.8%, -23.8%, -1.9%, -19.7%, ?, -3.0%
COc1ccc(CCC(=O)Nc2cccc(S(=O)(=O)N3CCCCCC3)c2)cc1
→ ., 20.6µM*, 1.3%, -10.2%, 0.3%, .
COc1ccc(CC(=O)Nc2cccc(S(=O)(=O)N3CCCCC3)c2)cc1
→ ., ?, -4.4%, -1.9%, 1.6%, 0.3%
COc1cccc(NC(=O)CNCc2ccccc2)c1
→ -46.3%, -6.8%, 9.6%, -4.3%, 6.8%, -0.7%
COc1ccc(CNCC(=O)Nc2cccc(S(N)(=O)=O)c2)cc1
→ -1.0%, -4.4%, ., -2.4%, -0.1%, 35.5µM*
O=C(COc1ccccc1Br)Nc1ccc(S(=O)(=O)N2CCCC2)cc1
→ ., 13µM*, 12.1%, -4.2%, -0.2%, -0.6%
Cc1ccc(NC(=O)CSCC(=O)Nc2cccc(S(=O)(=O)N3CCCCCC3)c2)cc1
→ ., 13µM*, -10.8%, -26.9%, 3.5%, -2.3%
Cc1ccccc1S(=O)(=O)N1CCN(S(=O)(=O)c2ccc3c(c2)OCCO3)CC1
→ ., -8.7%, ., -2.6%, ., .
O=C(O)CC1(c2ccc(F)cc2)C2CC3CC(C2)CC1C3 (stereo unspecified)
→ 0.4%, 2.6%, -1.7%, 14.8%, 2.2%, -3.1%
Cc1ccc(S(=O)(=O)Nc2nc3ccccc3nc2Nc2cccc(S(=O)(=O)N3CCCC3)c2)cc1
→ 4.9%, 9.2µM*, -2.4%, -12.9%, -0.5%, 3.7%
O=[N+]([O-])c1cccc(S(=O)(=O)Nc2nc3ccccc3nc2Nc2cccc(S(=O)(=O)N3CCCCC3)c2)c1
→ -2.1%, ?, 1.4%[46.1 µM], ?, 18.8%, -1.1%
CCS(=O)c1ccccc1C(=O)OCC(=O)Nc1cccc(S(=O)(=O)N2CCCCC2)c1 (stereo unspecified)
→ ., 20.6µM*, 4.0%, -11.7%, 0.4%, 0.5%
Cc1cccc(C)c1OCC(=O)Nc1cccc(S(=O)(=O)N2CCCC2)c1
→ ., 14.6µM*, -0.7%, -13.1%, 0.0%, 0.4%
Cc1cc(OCC(=O)Nc2cccc(S(=O)(=O)N3CCCC3)c2)ccc1Cl
→ ., 16.4µM*, -1.0%, -16.4%, 2.6%, .
Cn1c(CNC(=O)CNS(=O)(=O)c2ccc(Cl)cc2)cc(=O)n(C)c1=O
→ 0.6%, 24.2%, -2.4%, 9.0%, -0.4%, 0.7%
Fc1ccccc1Sc1ccccc1CNC1=NCCN1
→ 12.8%, -15.7%, 0.8%[46.1 µM], -3.0%, 0.0%, 1.8%
c1ccc(Sc2cccc3ccccc23)c(CNC2=NCCN2)c1
→ 29.8%, 5.0%, -17.4%[46.1 µM], -8.5%, 6.8%, 3.16µM*
CCSC(C)CC1C/C(=N/O)c2c(CC)noc2C1 (stereo unspecified)
→ -5.8%, 23.1µM*, ., -5.2%[1.84 µM], -0.2%, -0.8%
CC(C)(C)C(=O)NCCCc1nc2ccccc2n1CCCOc1ccc(Cl)cc1
→ ?, 23.1µM*, -4.5%, ?, 1.8%, 1.5%
Cc1ccc(OCCn2c(CCNC(=O)C3CCCCC3)nc3ccccc32)cc1
→ -2.1%, ?, ., -9.4%, ., .

# Brought forward from above: 4 entries; new compounds follow.
# Each structure is followed by: miR-21 reporter, Nrf2 block, TCR act, A549 viability, Nrf2 activator, ClpP mod
c1ccc(Sc2cccc3ccccc23)c(CNC2=NCCN2)c1
→ 29.8%, 5.0%, -17.4%[46.1 µM], -8.5%, 6.8%, 3.16µM*
CCSC(C)CC1C/C(=N/O)c2c(CC)noc2C1 (stereo unspecified)
→ -5.8%, 23.1µM*, ., -5.2%[1.84 µM], -0.2%, -0.8%
CC(C)(C)C(=O)NCCCc1nc2ccccc2n1CCCOc1ccc(Cl)cc1
→ ?, 23.1µM*, -4.5%, ?, 1.8%, 1.5%
Cc1ccc(OCCn2c(CCNC(=O)C3CCCCC3)nc3ccccc32)cc1
→ -2.1%, ?, ., -9.4%, ., .
CC(C)(C)c1ccc(OCCn2c(CCNC(=O)C3CCCCC3)nc3ccccc32)cc1
→ ., 18.4µM*, ., -29.1%, ., -0.6%
COc1ccc(CN(Cc2ccccc2)C(=O)c2ccccc2O)cc1
→ ., ?, ., 4.4%, ., .
COc1ccccc1Oc1ccc2c(c1)C(=O)N(c1cccc(O)c1)C2=O
→ -7.7%, -9.0%, 5.2%, -11.2%, 4.3%, -0.6%
COc1ccccc1Oc1ccc2c(c1)C(=O)N(c1cccc3ncccc13)C2=O
→ 1.5%, 16.4µM*, 5.4%[46.1 µM], -7.7%, 2.4%, .
CCn1c(SCC(=O)N/N=C/C=C\c2ccccc2[N+](=O)[O-])nnc1-c1ccccc1
→ -2.1%, 16.4µM*, 2.7%, -17.1%, 16.0%, -2.8%
Cc1ccc(CSc2nnc(SCC(=O)N/N=C/C=C/c3ccccc3[N+](=O)[O-])s2)cc1
→ 6.6%, ?, -8.2%[46.1 µM], 12.0%, -0.2%, -1.0%
CCc1c(C)sc2c1CCN(C(=O)Nc1ccccc1Cl)C2c1ccc(OC)cc1 (stereo unspecified)
→ -3.1%, ., ., 14.9%, 0.2%, -0.3%
C=COC(=O)CSc1nc(-c2cccs2)ccc1C#N
→ -64.0%, ., ., 7.5%, 26.0%, 28.2µM*
N#Cc1ccc(-c2cccs2)nc1SCC(=O)Nc1cccc(C(F)(F)F)c1
→ -8.0%, -4.3%, ., -9.2%, 8.6%, 3.9%
CCOC(=O)C(C)Sc1nc(-c2cccs2)ccc1C#N (stereo unspecified)
→ 0.9%, ?, -5.3%, -3.9%, ?, 12.6µM*
Cc1cccc(C)c1NS(=O)(=O)c1ccc(NS(=O)(=O)c2ccc3c(c2)OCCO3)cc1
→ ?, 0.8%, ., -0.6%, -0.2%, 0.1%
Oc1ccc(/C=C/c2nc(-c3ccccc3O)n(-c3ccccc3)n2)c(O)c1
→ 16.7%, ?, ., ?, -4.4%, ?
CN(Cc1cc(Cl)cc(Cl)c1)CC(C(=O)c1ccccc1)c1ccccc1 (stereo unspecified)
→ ., -7.7%, -2.3%, 10.9%, 11.2µM*, -1.1%

# Screens as filed in PubChem BioAssay.
